From patent publication US10138236B2, “Factor xia-inhibiting pyridobenzazepine and pyridobenzazocine derivatives” (BAYER PHARMA AKTIENGESELLSCHAFT, priority 2014, dated 2018) come the findings set out here.

The chains behind the UniProt entries cited, without tags or fusion partners. Residues count along the entry.
UniProt P03951, 19-387 partner: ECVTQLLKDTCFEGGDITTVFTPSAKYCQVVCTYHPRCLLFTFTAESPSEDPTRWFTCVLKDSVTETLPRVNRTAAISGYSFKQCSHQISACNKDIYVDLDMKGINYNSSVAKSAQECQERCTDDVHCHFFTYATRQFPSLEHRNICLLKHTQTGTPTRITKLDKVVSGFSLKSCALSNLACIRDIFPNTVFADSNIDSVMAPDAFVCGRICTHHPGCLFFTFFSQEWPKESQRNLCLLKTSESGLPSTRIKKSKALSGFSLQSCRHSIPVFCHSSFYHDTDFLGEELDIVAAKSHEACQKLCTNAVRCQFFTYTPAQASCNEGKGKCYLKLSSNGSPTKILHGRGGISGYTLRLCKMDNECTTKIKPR
UniProt P03951, 388-625: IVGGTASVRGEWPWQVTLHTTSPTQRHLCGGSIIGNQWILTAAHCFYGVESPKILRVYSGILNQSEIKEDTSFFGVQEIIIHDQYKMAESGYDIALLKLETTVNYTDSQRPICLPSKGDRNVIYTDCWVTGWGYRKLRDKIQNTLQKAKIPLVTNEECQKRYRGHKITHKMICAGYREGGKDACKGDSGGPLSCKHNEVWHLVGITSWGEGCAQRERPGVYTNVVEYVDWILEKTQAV

The target of the test is human factor XIa (Homo sapiens (Human), UniProt P03951). Put plainly: Measurement of FXIa inhibition. The format is biochemical. As for the experimental part:
a.1) Measurement of FXIa Inhibition
The factor XIa inhibition of the substances according to the invention is determined using a biochemical test system which utilizes the reaction of a peptidic factor XIa substrate to determine the enzymatic activity of human factor XIa. Here, factor XIa cleaves from the peptic factor XIa substrate the C-terminal aminomethylcoumarin (AMC), the fluorescence of which is measured. The determinations are carried out in microtitre plates.
1 μl of the diluted substance solutions is placed into each of the wells of white microtitre plates from Greiner (384 wells). […] After 15 min of incubation, the enzyme reaction is started by addition of 20 μl of the factor XIa substrate Boc-Glu(OBzl)-Ala-Arg-AMC dissolved in assay buffer (10 μM in assay buffer) from Bachem, the mixture is incubated at room temperature (22° C.) for 30 min and fluorescence is then measured (excitation: 360 nm, emission: 460 nm). The measured emissions of the test batches with test substance are compared to those of control batches without test substance (only dimethyl sulphoxide instead of test substance in dimethyl sulphoxide), and IC50 values are calculated from the concentration/activity relationships.

On to `COCCC(C(=O)Nc1ccc(C(N)=O)c(F)c1)n1cc2c(cc1=O)-c1cc(Cl)ccc1CC(CF)NC2=O` (stereo not shown) [Example 32, 4-({2-[11-Chloro-7-(fluoromethyl)-2,5-dioxo-5,6,7,8-tetrahydropyrido[3,4-e][3]benzazocin-3(2H)-yl]-4-methoxybutanoyl}amino)-2-fluorobenzamide], for which the midpoint of inhibition, the IC50, lay at 5.3 nM.

In general, IC50 refers to the point on the concentration scale where inhibition reaches its midpoint.
